# Assay results reported in publication PMC4059246 (Journal of Medicinal Chemistry, 2014).
# Test system: RPA194
# Settings: for Effect on expression of RPA194: U2OS cells, 0.5 μM, 3 h, representative images (Figure 2A); for Biological activity (in words): RPA194 and NCL assays in U2OS cells
SMILES,Effect on expression of RPA194,also measured
"CN(C)CCNC(=O)c1cccn2c(=O)c3cc4ccccc4cc3nc12 [Compound 2, N-[2-(Dimethylamino)ethyl]-12-oxo-12H-benzo[g]pyrido[2,1-b]quinazoline-4-carboxamide]",almost complete loss of expression of RPA194,
"O=C(NCCN1CCCCC1)c1cccn2c(=O)c3cc4ccccc4cc3nc12 [Compound 8, 12-Oxo-N-[2-(1-piperidyl)ethyl]-12H-benzo[g]pyrido[2,1-b]quinazoline-4-carboxamide]",almost complete loss of expression of RPA194,
"CCN(CC)CCNC(=O)c1cccn2c(=O)c3cc4ccccc4cc3nc12 [Compound 10, N-[2-(Diethylamino)ethyl]-12-oxo-12H-benzo[g]pyrido[2,1-b]quinazoline-4-carboxamide]",almost complete loss of expression of RPA194,
"CC(CN(C)C)NC(=O)c1cccn2c(=O)c3cc4ccccc4cc3nc12 (stereo not shown) [Compound 11, N-[2-(Dimethylamino)-1-methylethyl]-12-oxo-12H-benzo[g]pyrido[2,1-b]quinazoline-4-carboxamide]",almost complete loss of expression of RPA194,
"O=C(NC1CNC1)c1cccn2c(=O)c3cc4ccccc4cc3nc12 [Compound 12, N-(Azetidin-3-yl)-12-oxo-12H-benzo[g]pyrido[2,1-b]quinazoline-4-carboxamide]",almost complete loss of expression of RPA194,
"CN(C)CCCCNC(=O)c1cccn2c(=O)c3cc4ccccc4cc3nc12 [Compound 14, N-[4-(Dimethylamino)butyl]-12-oxo-12H-benzo[g]pyrido[2,1-b]quinazoline-4-carboxamide]",no effect,
"CN(C)CCN(C)C(=O)c1cccn2c(=O)c3cc4ccccc4cc3nc12 [Compound 18, N-[2-(Dimethylamino)ethyl]-N-methyl-12-oxo-12H-benzo[g]pyrido[2,1-b]quinazoline-4-carboxamide]",,Decrease in potency relative to compound 2: either inactive or caused >400-fold decrease in potency
"CC(C)(C)OC(=O)N1CC(NC(=O)c2cccn3c(=O)c4cc5ccccc5cc4nc23)C1 [Compound 30, tert-Butyl 3-[(12-Oxo-12H-benzo[g]pyrido[2,1-b]quinazoline-4-carbonyl)amino]azetidine-1-carboxylate]",,Biological activity (in words): inactive
"CN1CCC(N(C)C(=O)c2cccn3c(=O)c4cc5ccccc5cc4nc23)C1 (stereo not shown) [Compound 32, N-Methyl-N-(1-methylpyrrolidin-3-yl)-12-oxo-12H-benzo[g]pyrido[2,1-b]quinazoline-4-carboxamide]",,Biological activity (in words): inactive
"O=C(NCCN1CCOCC1)c1cccn2c(=O)c3cc4ccccc4cc3nc12 [Compound 36, N-(2-Morpholinoethyl)-12-oxo-12H-benzo[g]pyrido[2,1-b]quinazoline-4-carboxamide]",no effect,
